# According to the NIST ThermoML archive (doi:10.1016/j.fluid.2015.10.024):
# Numbers after ± are expanded uncertainties.
# Columns and labels:
# [1] = Crystal; DTA
# [2] = Molar enthalpy of transition or fusion; details: Crystal; DSC
smiles,measurement,setting,value
CN1C(=O)CN=C(c2ccccc2)c2cc(Cl)ccc21,Normal melting temperature,[1],130.97 ± 0.39 °C
same,Molar enthalpy of transition or fusion,[2],6.25 ± 0.143 kcal/mol
